US8158340B2, “Methods for detecting conformational changes in bioentities” (Corning Incorporated, priority 2005, dated 2012)

Tested on: trypsin or chymotrypsin
Test: Conformational assay: label-independent digestion of immobilized albumins
Format: biochemical
Settings: relative to normal BSA; FIGS. 3 and 4
Procedure: In this assay, it was determined whether or not a label-independent detection assay can distinguish between different albumins by digestion with either trypsin or chymotrypsin on the Epic™ system. In this assay, digestion of BSA, acetylated BSA, methylated BSA, human serum albumin, baboon albumin and chicken albumin was examined, and the results are depicted in FIGS. 3 and 4. […] With trypsin digestion (FIG. 3), the acetylated BSA may be more denatured than the other BSA. […] In short, the digestion profiles were unique to several different protein sequences and chemical modifications. Chymotrypsin rates (FIG. 4) were not equal to trypsin digestion rates. […] These digestion signatures are informative in that they can be used to correlate function with structural integrity.

Substance: human serum albumin: human serum albumin
- digestion profile of immobilized albumin: closely similar digestions but not identical
